The data set in a line: Nasal administration of fluorescently-labeled dextran FD-4 (Example 3). The following applies: male, SD, rat, in vivo. Here is the method:
A fluorescently-labeled dextran FD-4 (Molecular probes, Inc.) was diluted with PBS to provide a 4 mg/ml solution. Using 40 μl of this solution, the evaluation was carried out in the same manner as in Example 1. The FD concentration in blood was quantified by fluorometry. The bioavailability was calculated by comparison with the case where the same amount of FD-4 was intravenously administered.

On to `CC[C@@H](C)[C@@H](NC(=O)[C@@H](CCCCN)NC(=O)[C@H](NC(=O)[C@@H](CCC(N)=O)NC(=O)[C@H](N)CCCNC(=N)N)[C@H](C)CC)C(=O)N[C@H](Cc1c[nH]c2ccccc12)C(=O)N[C@H](Cc1ccccc1)C(=O)N[C@H](CCC(N)=O)C(=O)N[C@H](CC(N)=O)C(=O)N[C@H](CCCNC(=N)N)C(=O)N[C@H](CCCNC(=N)N)C(=O)N[C@H](CCSC)C(=O)N[C@H](CCCCN)C(=O)N[C@H](Cc1c[nH]c2ccccc12)C(=O)N[C@H](CCCCN)C(=O)N[C@H](CCCCN)C(=O)O` [D-penetratin], for which the “bioavailability of FD-4” value is 36%.
